Measurements from patent publication US9034862B2, “Compositions and methods for the treatment of cancer” (priority 2011, dated 2015).

Tests used:
5′-dGMP = details: buffer, pH 7.4
[1] = tested on: Normal lung fibroblasts (MRC5) and cancerous lung (A549) cells; test: Selective killing of cancer cells, MRC5 vs A549 (MTT); format: cell-based, human; details: 72 h
Experimental: Solutions of the platinum compounds were freshly prepared in sterile PBS before use and their concentrations quantitated by atomic absorption spectroscopy. […] The cells were then treated with 20 μL of 3-(4,5-dimethylthiazol-2-yl)-2,5-diphenyltetrazolium bromide (MTT) (5 mg/mL in PBS) and incubated for 4 h. The medium was removed, 100 μL of DMSO was added to the cells, and the absorbance of the purple formazan was recorded at 560 nm using a BioTek Synergy HT multi-detection microplate plate reader. Each condition was performed in triplicate and three independent experiments were carried out for each cell line.

[2] = tested on: GLuc expression in HT29 cells; test: Transcription assay, globally platinated pGLuc, HT29; format: cell-based, human
Experimental: Transfection of transcription probes into A549 and HT29 cells with the pGLuc plasmid was carried out using liposomal transfecting agents. Determination of expression levels was tested by Luciferase assays monitored by a luminometer (J. Am. Chem. Soc. 2010, 132, 7429-7435). A549 cells were plated in 96-well plates at 2,000 cells/well and HT29 cells were plated in 96-well plates at 6,000 cells/well. After 48 h incubation (at ˜30% confluence), cells were transfected with 50 ng of platinated plasmids in 25 μL Opti-MEM and 0.125 μL Lipofectamine 2000, and subsequently 50 μL of antibiotics-free DMEM supplemented with 10% FBS. After 2 h, the cells were washed with medium and 100 μL of fresh medium was added. The experiment was carried out in quadruplicate.
GLuc activity was monitored using a luminescence plate reader (Synergy 2, BioTek, Winooski, Vt., USA). A 10 μL volume of medium at different time points (12, 24, 36, 48, 60 h) was transferred into opaque white 96-well plates, and 25 μL of GLuc assay solution (10 μM colelenterazine (NanoLight Technologies, Pinetop, Ariz., USA) in 2.5 mM acidified methanol (100 mM HCl), buffer (10 mM Tris-HCl pH 7.8, 1 mM EDTA, 0.6 M NaCl)) was added by the automatic injector of the instrument.
In another embodiment, A549 or HT29 cells were transfected using the platinated transcription probes, and transcription levels were investigated by determining GLuc expression as measured by […] following addition of coelenterazine as a substrate for the exported enzyme. The emission intensities were normalized against unplatinated plasmids as a control. Transcription profiles were obtained by plotting normalized levels of GLuc expression against platination levels (Pt/plasmid ratio) at five different time points. […] An increase in D0 value at different time points represents restoration of transcription.

[3] = tested on: Gaussia luciferase expression in human cancer cells; details: 8 hours; NoPt = 100; cell line not stated
Experimental: Vector Construction and Preparation. […] Preparation of Platinated Insertion Strand. […] The suspension was centrifuged. To a solution of 0.2 mM 16-mer oligonucleotide 5′-[…]*[…] The reaction mixture was incubated in the dark at 37° C. overnight. The reaction was stopped when the solution was frozen. […] After purification, the platinated DNA solution was dialyzed against H2O and lyophilized. […] The insertion strand was further analyzed for nucleotide composition by nuclease S1 digestion to confirm the platination site following a protocol published previously (Table 13) (e.g., see J Am Chem Soc 2007, 129, 6370-6371). The platinated and unplatinated DNA strands (40 μM) were phosphorylated by T4 PNK (0.67 U/μL) at 37° C. for 3 h, followed by a phenol/chloroform/isoamyl alcohol extraction to remove the enzyme. The phosphorylated DNA strands were ethanol precipitated and stored in −80° C. at a concentration of 100 pmol/μL.
Briefly, a 600 μg quantity of pGLuc8temG plasmid was digested with 30 U Nt.BbvCI at 37° C. for 1 h. […] A 120 μg quantity of the gapped plasmid was annealed with 100 equiv of the insertion strand in a buffer of 10 mM Tris-HCl, 2 mM MgCl2, 0.4 M NaCl, pH 7.4 from 90° C. to 4° C. at −1° C./min in a thermocycler. […] The plasmids were quantitated by a Quant-iT™ PicoGreen® dsDNA Kit from Invitrogen (Carlsbad, Calif.), and stored in −80° C. in TE buffer (10 mM Tris-HCl, 2 mM EDTA, pH 7.4). […]

N.N.O=[N+]([O-])[O-].[Cl][Pt+].c1ccncc1 [pyriplatin, cis-[Pt(NH3)2(pyridine)Cl]NO3]
half-life, reaction with 5′-dGMP (5′-dGMP): 2.4 h

cis-[Pt(NH3)2(phenanthridine)Cl]NO3 [phenanthriplatin]
ratio of IC50 values in healthy MRC5 cells to those in cancerous A549 cells [1]: 3.9
transcription level (normalized against unplatinated plasmid) ([2]; HT29, 12 h, Pt/DNA ratio of […] for phenanthriplatin): 28.1%
D0 (Pt lesions per plasmid required to reduce transcription levels to 37% of control) ([2]; HT29, 24 h after transfection): 21.1 Pt/plasmid
D0 (Pt lesions per plasmid required to reduce transcription levels to 37% of control) ([2]; HT29, 36 h after transfection): 21.9 Pt/plasmid
Transcription (normalized against unplatinated control) [3]: 24
